Earlier results in US20170007610A1, “NOVEL HETEROBICYCLIC COMPOUNDS AS KAPPA OPIOID AGONISTS” (priority 2014, published 2017).

Sequences of proteins named here, by UniProt entry; tags and fusion partners are left off. A change or cut given only in a name is not applied to a line headed by its entry.
UniProt P41145: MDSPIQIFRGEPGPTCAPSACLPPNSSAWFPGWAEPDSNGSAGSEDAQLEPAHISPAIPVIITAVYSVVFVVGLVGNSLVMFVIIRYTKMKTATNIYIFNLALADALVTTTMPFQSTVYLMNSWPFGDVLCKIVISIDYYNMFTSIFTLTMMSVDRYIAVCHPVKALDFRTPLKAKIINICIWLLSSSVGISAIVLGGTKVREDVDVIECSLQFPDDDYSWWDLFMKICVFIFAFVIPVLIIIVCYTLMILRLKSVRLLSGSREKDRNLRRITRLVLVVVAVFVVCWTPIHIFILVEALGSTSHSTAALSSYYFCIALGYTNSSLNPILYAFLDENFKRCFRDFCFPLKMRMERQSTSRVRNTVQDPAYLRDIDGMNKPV

Target: κ-opioid receptor (Homo sapiens, UniProt P41145)
Details: relative to U-50,488; cited from earlier work

## CN(C(=O)Cc1ccc(Cl)c(Cl)c1)[C@H](CN1CCCC1)c1ccccc1
  fold more potent than U-50,488 invitro: 146 fold
